Results on two compounds are retold here after ChEMBL document CHEMBL1126551, “Three-dimensional quantitative structure-activity relationships of 5-HT receptor binding data for tetrahydropyridinylindole derivatives: a comparison of the Hansch and CoMFA methods” (J Med Chem, 1993).

Chains of the proteins cited; added tags and fusions are not shown.
UniProt P19327, whole entry: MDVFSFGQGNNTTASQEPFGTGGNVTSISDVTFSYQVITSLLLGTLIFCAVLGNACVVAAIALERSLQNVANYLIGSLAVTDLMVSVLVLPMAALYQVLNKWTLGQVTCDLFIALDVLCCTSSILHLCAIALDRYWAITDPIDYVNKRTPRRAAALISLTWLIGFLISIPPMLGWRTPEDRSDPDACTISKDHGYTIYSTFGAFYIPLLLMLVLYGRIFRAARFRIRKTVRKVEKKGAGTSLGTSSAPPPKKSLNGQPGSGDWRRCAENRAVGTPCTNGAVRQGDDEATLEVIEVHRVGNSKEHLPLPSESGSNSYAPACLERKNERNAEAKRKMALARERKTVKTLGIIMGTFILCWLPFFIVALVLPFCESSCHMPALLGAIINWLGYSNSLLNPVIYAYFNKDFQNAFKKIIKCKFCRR

The structures appear in SMILES notation. pKi: −log10 of the molar value.

The assay has as its target 5-hydroxytryptamine receptor 1A (Rattus norvegicus, UniProt P19327).

What is called pKi is −log10 of the Ki, conventionally taken in molar units. A lower pKi goes with a high Ki. In turn, `CN1CCC(c2c[nH]c3ccccc23)C(O)C1` (configuration not stated) showed a pKi of 5.26.

With `Cc1[nH]c2ccccc2c1C1=CCN(C)CC1`, the pKi was 5.75. This pKi is 0.49 log units higher than that of the compound before.
